The values below are quoted from earlier work in US20100135908A1, “Delivery devices for modulating inflammation” (Searete LLC, a limited liability corporation of the state …, priority 2008, published 2010).

By UniProt entry, the sequences of proteins in these tests, tags left out. Residues count along the entry.
UniProt P10721, 26-976: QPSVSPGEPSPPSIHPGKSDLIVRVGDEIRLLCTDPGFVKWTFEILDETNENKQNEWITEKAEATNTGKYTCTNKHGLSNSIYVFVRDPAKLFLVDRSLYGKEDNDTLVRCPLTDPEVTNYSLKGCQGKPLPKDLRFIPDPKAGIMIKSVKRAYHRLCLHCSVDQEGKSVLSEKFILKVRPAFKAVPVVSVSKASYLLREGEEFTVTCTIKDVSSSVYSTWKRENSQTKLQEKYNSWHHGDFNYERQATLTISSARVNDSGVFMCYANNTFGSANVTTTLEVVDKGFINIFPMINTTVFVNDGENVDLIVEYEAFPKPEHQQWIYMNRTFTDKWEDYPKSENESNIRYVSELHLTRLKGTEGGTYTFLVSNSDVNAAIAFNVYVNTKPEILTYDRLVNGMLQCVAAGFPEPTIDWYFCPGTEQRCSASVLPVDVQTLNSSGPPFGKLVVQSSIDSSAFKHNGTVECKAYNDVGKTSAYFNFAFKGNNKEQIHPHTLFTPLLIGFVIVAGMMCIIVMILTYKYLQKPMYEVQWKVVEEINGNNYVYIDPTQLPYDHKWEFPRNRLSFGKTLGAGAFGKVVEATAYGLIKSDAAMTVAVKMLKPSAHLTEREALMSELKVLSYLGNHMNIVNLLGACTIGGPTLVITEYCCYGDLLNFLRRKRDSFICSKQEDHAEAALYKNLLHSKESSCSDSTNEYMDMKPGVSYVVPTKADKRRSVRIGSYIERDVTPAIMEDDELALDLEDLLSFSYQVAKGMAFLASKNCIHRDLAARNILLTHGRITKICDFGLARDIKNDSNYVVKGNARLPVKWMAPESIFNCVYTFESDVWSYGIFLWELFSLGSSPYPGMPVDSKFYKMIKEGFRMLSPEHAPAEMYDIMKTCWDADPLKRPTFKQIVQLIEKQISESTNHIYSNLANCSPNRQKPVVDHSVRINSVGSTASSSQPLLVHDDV
UniProt P09619, 33-1106, species assumed: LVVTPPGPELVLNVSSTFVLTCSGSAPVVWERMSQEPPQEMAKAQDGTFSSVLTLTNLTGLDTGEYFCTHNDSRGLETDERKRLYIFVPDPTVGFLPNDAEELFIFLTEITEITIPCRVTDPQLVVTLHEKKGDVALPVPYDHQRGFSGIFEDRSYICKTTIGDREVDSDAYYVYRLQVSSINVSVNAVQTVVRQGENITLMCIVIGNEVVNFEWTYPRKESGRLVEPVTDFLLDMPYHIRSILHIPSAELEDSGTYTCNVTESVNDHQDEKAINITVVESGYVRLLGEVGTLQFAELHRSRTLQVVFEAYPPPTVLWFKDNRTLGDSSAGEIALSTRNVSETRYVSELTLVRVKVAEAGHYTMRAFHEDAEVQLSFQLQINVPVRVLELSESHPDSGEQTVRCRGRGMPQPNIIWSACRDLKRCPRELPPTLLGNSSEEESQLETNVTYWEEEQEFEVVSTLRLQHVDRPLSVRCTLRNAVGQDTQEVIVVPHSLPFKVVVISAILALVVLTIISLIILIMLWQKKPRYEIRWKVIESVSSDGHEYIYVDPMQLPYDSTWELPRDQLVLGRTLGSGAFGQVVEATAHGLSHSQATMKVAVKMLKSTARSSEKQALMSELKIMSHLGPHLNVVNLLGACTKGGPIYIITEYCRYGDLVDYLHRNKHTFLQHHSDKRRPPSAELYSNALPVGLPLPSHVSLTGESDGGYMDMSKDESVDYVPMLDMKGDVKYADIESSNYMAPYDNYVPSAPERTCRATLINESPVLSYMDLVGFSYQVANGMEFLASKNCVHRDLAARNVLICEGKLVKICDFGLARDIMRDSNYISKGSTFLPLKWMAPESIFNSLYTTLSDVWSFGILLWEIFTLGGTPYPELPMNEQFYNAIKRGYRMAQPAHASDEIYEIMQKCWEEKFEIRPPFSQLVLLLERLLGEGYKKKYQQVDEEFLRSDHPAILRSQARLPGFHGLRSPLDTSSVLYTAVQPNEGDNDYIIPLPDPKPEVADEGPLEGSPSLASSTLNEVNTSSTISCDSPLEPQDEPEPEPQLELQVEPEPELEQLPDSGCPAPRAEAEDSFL

Molecules are shown by their SMILES.

For one data set, the target named is c-Kit (Homo sapiens, UniProt P10721). The note with it: at nanomolar concentrations.
The next data set has as its target PDGFRβ (Homo sapiens, UniProt P09619). The settings on record: at nanomolar concentrations.

Turning to `Cc1nc(Nc2ncc(C(=O)Nc3c(C)cccc3Cl)s2)cc(N2CCN(CCO)CC2)n1.O` [dasatinib, N-(2-chloro-6-methylphenyl)-2-[[6-[4-(2-hydroxyethyl)-1-piperazinyl]-2-methyl-4-pyrimidinyl]amino]-5-thiazolecarboxamide, monohydrate], on c-Kit, the “inhibition of c-Kit” value was “inhibits”. Also, the “inhibition of PDGFRβ” value on PDGFRβ is “inhibits”.
